Where only a bound is given, the exact number is not on record here.

This test concerns the target T1, Olfactory receptor 5K1 (Homo sapiens) (UniProt Q8NHB7).
T1 sequence (whole entry): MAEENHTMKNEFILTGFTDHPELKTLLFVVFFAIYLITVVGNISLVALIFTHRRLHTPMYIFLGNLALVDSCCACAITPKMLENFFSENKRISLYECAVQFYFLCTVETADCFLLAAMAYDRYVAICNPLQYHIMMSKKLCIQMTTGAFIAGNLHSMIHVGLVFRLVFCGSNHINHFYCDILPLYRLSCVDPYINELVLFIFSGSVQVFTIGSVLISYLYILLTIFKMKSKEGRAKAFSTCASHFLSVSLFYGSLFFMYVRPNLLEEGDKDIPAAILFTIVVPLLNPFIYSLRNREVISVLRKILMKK
The test can be described thus: Antagonist activity at human OR5K1 expressed in HEK293 cells assessed as inhibition of 2,6-dimethylpyrazine-induced response at 100 uM by luciferase reporter gene assay. Format: functional, cell-based. In general terms: A reporter such as luciferase makes a cellular process visible.

The term inhibition denotes the percentage by which the read-out fell short of the control. Consider `CC(=O)/C=C/C1C(C)=CCCC1(C)C` (stereo unspecified), for which the inhibition was > 75%.

The values are drawn from ChEMBL document CHEMBL3727343, “Agent for inhibiting odor of pyrazine derivatives” (2013).
